Measurements published in ChEMBL document CHEMBL5727955, “Aminopyrazoles as janus kinase inhibitors” (2020).

Amino acid sequences for entries named in this document (tags omitted). A change or cut given only in a name is not applied to a line headed by its entry.
UniProt O60674: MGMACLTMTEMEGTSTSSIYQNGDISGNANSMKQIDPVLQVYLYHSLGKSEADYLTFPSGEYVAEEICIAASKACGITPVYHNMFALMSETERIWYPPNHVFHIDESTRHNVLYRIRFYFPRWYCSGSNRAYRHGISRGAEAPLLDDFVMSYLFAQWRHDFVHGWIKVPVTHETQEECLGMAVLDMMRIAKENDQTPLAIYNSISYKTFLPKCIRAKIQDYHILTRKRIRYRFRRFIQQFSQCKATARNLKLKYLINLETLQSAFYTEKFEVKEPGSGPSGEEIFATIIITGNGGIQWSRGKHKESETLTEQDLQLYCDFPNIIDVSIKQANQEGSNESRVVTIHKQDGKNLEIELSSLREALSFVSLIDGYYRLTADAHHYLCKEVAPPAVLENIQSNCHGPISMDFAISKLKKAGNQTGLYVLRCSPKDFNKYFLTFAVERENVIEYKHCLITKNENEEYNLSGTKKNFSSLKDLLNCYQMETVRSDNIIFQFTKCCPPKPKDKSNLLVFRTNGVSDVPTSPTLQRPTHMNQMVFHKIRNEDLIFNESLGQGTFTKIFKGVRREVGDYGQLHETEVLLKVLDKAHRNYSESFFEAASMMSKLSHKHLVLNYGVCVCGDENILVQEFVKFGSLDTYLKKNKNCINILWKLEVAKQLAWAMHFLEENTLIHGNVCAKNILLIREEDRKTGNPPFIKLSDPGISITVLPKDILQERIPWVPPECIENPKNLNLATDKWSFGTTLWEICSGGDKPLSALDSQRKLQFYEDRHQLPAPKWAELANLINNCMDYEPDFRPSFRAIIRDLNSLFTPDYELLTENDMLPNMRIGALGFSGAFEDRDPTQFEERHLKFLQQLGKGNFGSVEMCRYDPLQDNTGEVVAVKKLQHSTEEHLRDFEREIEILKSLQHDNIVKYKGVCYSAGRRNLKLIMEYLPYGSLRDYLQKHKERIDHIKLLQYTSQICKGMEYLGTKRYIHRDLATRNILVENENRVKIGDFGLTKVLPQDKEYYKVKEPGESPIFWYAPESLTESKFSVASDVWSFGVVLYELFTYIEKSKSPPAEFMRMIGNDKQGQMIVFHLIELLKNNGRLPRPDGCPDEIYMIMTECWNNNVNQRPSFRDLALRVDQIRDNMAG

Target: Tyrosine-protein kinase JAK2 (Homo sapiens, UniProt O60674)
Assay: Biochemical HTRF Enzyme Assay Protocol: The basic assay protocol is as follows: First, 250 nL of diluted compounds in DMSO were dispensed into the wells of a dry 384-well Black plate (GreinerFluotrac™ catalog number: 781076; Greiner Bio-One GmbH, Frickenhausen, Germany) using a Labcyte Echo® 555 acoustic dispenser ([…], Sunnyvale, Calif., USA). Subsequent reagent additions employed an Agilent™ Bravo™ liquid handling system (Aligent Technologies, Santa Clara, Calif., USA). […] After equilibration, 2 μL of 10×ATP in 1× assay buffer was added to initiate the kinase reaction and the plates were shaken and then incubated at ambient temperature for 120 minutes. At the end of the incubation, 20 μL of 2× stop buffer (Streptavidin-Dylight 650/100 mL catalogue number: 8454B (Invitrogen™/Life Technologies/ThermoFisher Scientific Inc., Waltham, Mass., USA); Europium-tagged pY20 antibody (PerkinElmer™ catalogue number: AD0067 (PerkinElmer™, Waltham, Mass., USA)); EDTA; HEPES; and Triton™ X-100 (Sigma-Aldrich, St. Louis, Mo., USA) was added to quench the reaction.

Row | SMILES | IC50
1 | N#C[C@H]1CCOC[C@@H]1n1cc(C(N)=O)c(Nc2ccc(Cl)cc2)n1 | 1.92 nM
2 | N#C[C@H]1CCOC[C@@H]1n1cc(C(N)=O)c(Nc2ccc(Cl)c(Cl)c2)n1 | 23.4 nM
